Protein sequences, listed by entry. Tags and fused reporters are not part of them. Lines headed by an entry give the natural chain unless they say otherwise; changes in a name come on top.
UniProt P41145: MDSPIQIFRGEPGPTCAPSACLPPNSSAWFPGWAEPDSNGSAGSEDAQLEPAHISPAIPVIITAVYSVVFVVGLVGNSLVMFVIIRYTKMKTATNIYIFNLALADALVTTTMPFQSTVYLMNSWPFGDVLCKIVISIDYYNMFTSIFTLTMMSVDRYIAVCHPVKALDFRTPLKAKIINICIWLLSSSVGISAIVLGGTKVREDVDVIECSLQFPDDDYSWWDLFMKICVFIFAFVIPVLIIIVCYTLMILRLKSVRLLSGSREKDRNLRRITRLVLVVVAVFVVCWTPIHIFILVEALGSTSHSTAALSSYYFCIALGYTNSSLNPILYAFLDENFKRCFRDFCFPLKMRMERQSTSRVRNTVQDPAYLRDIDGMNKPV

According to patent US20220324876A1, “4-SUBSTITUTED PYRANO[3,4,b]PYRAZINE KAPPA AGONISTS FOR TREATING DRUG DEPENDENCY” (The Rockefeller University, priority 2019, published 2022):

Target: kappa opioid receptor (KOP-R, hOPRK1) (Homo sapiens, UniProt P41145)
Conditions: read-out: Binding IC50

## O=C(Cc1ccc(Cl)c(Cl)c1)N1CCN(C(=O)C2(O)CCC2)[C@@H]2COC[C@H](N3CCCC3)[C@H]21 (single isomer, unassigned) [Example 5A128A]
  IC50: 103 nM
